Laboratory results reported in US20100151459A1 (published 2010).

Test system: patients with schizophrenia, schizophreniform disorder or schizoaffective disorder

With `O=C1CCc2ccc(OCCCCN3CCN(c4cccc(Cl)c4Cl)CC3)cc2N1` [aripiprazole] as the compound, how does the “difference in PANSS score between the two genotype groups” value (end of duration period after lapse of 26 weeks) read?
Its value is “difference between two groups was observed”.

And the “improvement of PANSS score (0 week vs 8, 12, 16 and 26 weeks)” value (minor alleles of Taq IA polymorphism (A1A1) compared to major alleles (A1A2 and A2A2), at 8 weeks or later)?
The value was “significant improvement”.

And the “symptoms by PANSS total score” value (patients having A1A1 alleles compared to A1A2 and A2A2, 8, 12 and 16 weeks)?
Its value is “dramatically improved”.
